The text below walks through data of US12576087B2, “Aryloxypiperidine pyrazole compounds as indoleamine 2,3-dioxygenase inhibitors” (Merck Sharp & Dohme LLC, priority 2018, dated 2026).

The chains behind the UniProt entries cited, without tags or fusion partners.
UniProt P14902, whole entry: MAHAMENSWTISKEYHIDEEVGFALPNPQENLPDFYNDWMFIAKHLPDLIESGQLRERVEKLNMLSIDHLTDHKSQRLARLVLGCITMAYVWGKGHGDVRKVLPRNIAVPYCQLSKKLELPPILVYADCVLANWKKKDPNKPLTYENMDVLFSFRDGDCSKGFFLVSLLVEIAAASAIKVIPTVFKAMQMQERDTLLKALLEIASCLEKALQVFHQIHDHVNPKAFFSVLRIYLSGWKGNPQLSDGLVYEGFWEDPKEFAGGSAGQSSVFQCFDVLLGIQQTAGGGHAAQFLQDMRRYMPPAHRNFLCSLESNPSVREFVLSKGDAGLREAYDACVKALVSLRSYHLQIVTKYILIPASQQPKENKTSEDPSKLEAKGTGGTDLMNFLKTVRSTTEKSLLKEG

For orientation: EC50 means the concentration giving half of the maximal effect.

Structures are written as SMILES. Counter-ions that a name gives are not always drawn.

The target in this assay is IDO1 (Homo sapiens, UniProt P14902). Kind of assay: IDO1 Cellular Assay in HeLa Cells Stimulated with IFNγ. To be noted: HeLa cells stimulated with IFNγ 100 ng/mL, about 48 hours. The class given is cell-based.

`CCOC(=O)c1nn(CC(=O)N2CCC(Oc3ccccc3Cl)CC2)c2c1CCCC2` [Example 14, ethyl 1-(2-(4-(2-chlorophenoxy)piperidin-1-yl)-2-oxoethyl)-4,5,6,7-tetrahydro-1H-indazole-3-carboxylate] registered a concentration giving a half-maximal response (EC50) of 21.3 nM. In turn, `Cc1ccccc1NC1CCN(C(=O)Cn2nc(C(=O)N3CCC(F)(CO)CC3)c3c2C[C@H]2C[C@@H]32)CC1` [Example 176, 2-((3bR,4aR)-3-(4-Fluoro-4-(hydroxymethyl)piperidine-1-carbonyl)-3b,4,4a,5-tetrahydro-1H-cyclopropa[3,4]cyclopenta[1,2-c]pyrazol-1-yl)-1-(4-(o-tolylamino)piperidin-1-yl)ethan-1-one] had a concentration giving a half-maximal response (EC50) of 4.51 nM.

Turning to `C[C@@H]1CN(C(=O)c2nn(CC(=O)N3CCC(Oc4ccccc4Cl)C3)c3c2CCC3)C[C@H](C)O1` (stereo partly drawn) [Example 121, 1-[3-(2-chlorophenoxy)pyrrolidin-1-yl]-2-{3-[(2R,6S)-2,6-dimethylmorpholine-4-carbonyl]-5,6-dihydrocyclopenta[c]pyrazol-1(4H)-yl}ethan-1-one], it took 270 nM to reach a half-maximal effect (EC50). The figure for `C[C@H]1C[C@H](Oc2ncccc2C(F)(F)F)CCN1C(=O)Cn1nc(C(=O)N2CC[C@@H](O)[C@@H](F)C2)c2c1C[C@H]1C[C@@H]21` [Example 67, 2-((3bR,4aR)-3-((3S,4R)-3-fluoro-4-hydroxypiperidine-1-carbonyl)-3b,4,4a,5-tetrahydro-1H-cyclopropa[3,4]cyclopenta[1,2-c]pyrazol-1-yl)-1-((2S,4R)-2-methyl-4-((3-(trifluoromethyl)pyridin-2-yl)oxy)piperidin-1-yl)ethanone] is 110 nM. `C[C@@H]1CN(C(=O)c2nn(CC(=O)N3CCC(Oc4ccc(C(F)(F)F)cc4)CC3)c3c2CCC3)C[C@H](C)O1` [Example 102, 2-{3-[(2R,6S)-2,6-dimethylmorpholine-4-carbonyl]-5,6-dihydrocyclopenta[c]pyrazol-1(4H)-yl}-1-{4-[4-(trifluoromethyl)phenoxy]piperidin-1-yl}ethan-1-one] displayed an EC50 of 24 nM.

`C[C@@H]1CN(C(=O)c2nn(CC(=O)N3CCC(Oc4c(F)cccc4F)CC3)c3c2CCC3)C[C@H](C)O1` [Example 153, 1-[4-(2,6-difluorophenoxy)piperidin-1-yl]-2-{3-[(2R,6S)-2,6-dimethylmorpholine-4-carbonyl]-5,6-dihydrocyclopenta[c]pyrazol-1(4H)-yl}ethan-1-one] displayed an EC50 of 37.9 nM. In turn, `C[C@@H]1CN(C(=O)c2nn(CC(=O)N3CCC(Oc4c(F)cc(F)cc4F)CC3)c3c2CCC3)C[C@H](C)O1` [Example 157, 2-{3-[(2R,6S)-2,6-dimethylmorpholine-4-carbonyl]-5,6-dihydrocyclopenta[c]pyrazol-1(4H)-yl}-1-[4-(2,4,6-trifluorophenoxy)piperidin-1-yl]ethan-1-one] yielded a 50% effective concentration (EC50) of 79.4 nM. The figure for `O=C(Cn1nc(C(=O)N2CCC(O)(CO)CC2)c2c1CCCC2)N1CCC(Oc2ccccc2Cl)CC1` [Example 1, 1-(4-(2-Chlorophenoxy)piperidin-1-yl)-2-(3-(4-hydroxy-4-(hydroxymethyl)piperidine-1-carbonyl)-4,5,6,7-tetrahydro-1H-indazol-1-yl)ethanone] is 4.72 nM; for `O=C(Cn1nc(C(=O)N2CCC(O)CC2)c2c1CCCC2)N1CCC(Oc2cccc(Cl)c2)CC1` [Example 44, 1-(4-(3-chlorophenoxy)piperidin-1-yl)-2-(3-(4-hydroxypiperidine-1-carbonyl)-4,5,6,7-tetrahydro-1H-indazol-1-yl)ethanone] it is 14.9 nM. Under `Cc1cc(F)ccc1OC1CCN(C(=O)Cn2nc(C(=O)N3CCN(C(=O)CO)CC3)c3c2CCCCC3)CC1` [Example 84, 1-[4-(4-fluoro-2-methyl-phenoxy)-1-piperidyl]-2-[3-[4-(2-hydroxyacetyl)piperazine-1-carbonyl]-5,6,7,8-tetrahydro-4H-cyclohepta[c]pyrazol-1-yl]ethanone] stands 30.4 nM; under `Cc1ccccc1OC1CCN(C(=O)Cn2nc(C(=O)N3CCC(O)(CF)CC3)c3c2CCCC3)CC1` [Example 26, 2-(3-(4-(fluoromethyl)-4-hydroxypiperidine-1-carbonyl)-4,5,6,7-tetrahydro-1H-indazol-1-yl)-1-(4-(o-tolyloxy)piperidin-1-yl)ethanone], 2.26 nM; under `Cc1ccccc1OC1CCN(C(=O)Cn2nc(C(=O)N3CCO[C@@H](CO)C3)c3c2CCC3)CC1` [Example 45, (R)-2-(3-(2-(hydroxymethyl)morpholine-4-carbonyl)-5,6-dihydrocyclopenta[c]pyrazol-1(4H)-yl)-1-(4-(o-tolyloxy)piperidin-1-yl)ethanone], 22.5 nM. Under `CC(=O)NC1CCN(C(=O)c2nn(CC(=O)N3CCC(Oc4ccccc4C)CC3)c3c2[C@@H]2C[C@@H]2C3)CC1` [Example 29, N-(1-((3bR,4aR)-1-(2-oxo-2-(4-(o-tolyloxy)piperidin-1-yl)ethyl)-3b,4,4a,5-tetrahydro-1H-cyclopropa[3,4]cyclopenta[1,2-c]pyrazole-3-carbonyl)piperidin-4-yl)acetamide] stands 2.66 nM. On to `C[C@@H]1C[C@H](Oc2ccccc2Cl)CCN1C(=O)Cn1nc(C(=O)N2CCN(C(=O)CO)CC2)c2c1CCCC2` [Example 53, 1-((2R,4R)-4-(2-chlorophenoxy)-2-methylpiperidin-1-yl)-2-(3-(4-(2-hydroxyacetyl)piperazine-1-carbonyl)-4,5,6,7-tetrahydro-1H-indazol-1-yl)ethanone], for which the EC50 came to 8.02 nM. The figure for `O=C(c1nn(CC(=O)N2CCC(Oc3ncccc3Cl)CC23CC3)c2c1CCCC2)N1CC[C@@H](O)[C@@H](F)C1` (single isomer, unassigned) [Example 69, 1-((S or R)-7-((3-chloropyridin-2-yl)oxy)-4-azaspiro[2.5]octan-4-yl)-2-(3-((3S,4R)-3-fluoro-4-hydroxypiperidine-1-carbonyl)-4,5,6,7-tetrahydro-1H-indazol-1-yl)ethanone, TFA] is 284 nM. Under `Cc1cccc(OC2CCN(C(=O)Cn3nc(C(=O)N4C[C@@H](C)O[C@@H](C)C4)c4c3CCC4)CC2)c1` [Example 98, 2-{3-[(2R,6S)-2,6-dimethylmorpholine-4-carbonyl]-5,6-dihydrocyclopenta[c]pyrazol-1(4H)-yl}-1-[4-(3-methylphenoxy)piperidin-1-yl]ethan-1-one] stands 11.3 nM; under `C[C@@H]1CN(C(=O)c2nn(CC(=O)N3CCC(F)(Cc4ccccc4)CC3)c3c2CCC3)C[C@H](C)O1` [Example 167, 1-(4-Benzyl-4-fluoropiperidin-1-yl)-2-(3-((2S,6R)-2,6-dimethylmorpholine-4-carbonyl)-5,6-dihydrocyclopenta[c]pyrazol-1(4H)-yl)ethan-1-one], 278 nM.

Compound `Cc1ccccc1OC1CCN(C(=O)Cn2nc(C(=O)N3CC[C@@H](O)[C@@H](F)C3)c3c2CCC3)CC1` [Example 40, 2-(3-((3S,4R)-3-fluoro-4-hydroxypiperidine-1-carbonyl)-5,6-dihydrocyclopenta[c]pyrazol-1(4H)-yl)-1-(4-(o-tolyloxy)piperidin-1-yl)ethanone] returned an EC50 of 11 nM.

Consider `CCOC(=O)c1nn(CC(=O)N2CCC(Oc3ncccc3Cl)CC23CC3)c2c1CCCC2` (centres unmarked) [Example 64, ethyl 1-(2-(7-((3-chloropyridin-2-yl)oxy)-4-azaspiro[2.5]octan-4-yl)-2-oxoethyl)-4,5,6,7-tetrahydro-1H-indazole-3-carboxylate], for which the 50% effective concentration (EC50) amounted to 460 nM. Under `Cc1ccccc1[S+]([O-])C1CCN(C(=O)Cn2nc(C(=O)N3CC[C@H](O)[C@H](F)C3)c3c2C[C@H]2C[C@@H]32)CC1` (stereo partly drawn) [Example 179, 2-((3bR,4aR)-3-((3R,4S)-3-fluoro-4-hydroxypiperidine-1-carbonyl)-3b,4,4a,5-tetrahydro-1H-cyclopropa[3,4]cyclopenta[1,2-c]pyrazol-1-yl)-1-(4-(o-tolylsulfinyl)piperidin-1-yl)ethanone] stands 87.2 nM. Under `Cc1cc(OC2CCN(C(=O)Cn3nc(C(=O)N4C[C@@H](C)O[C@@H](C)C4)c4c3CCC4)CC2)ccc1F` [Example 151, 2-{3-[(2R,6S)-2,6-dimethylmorpholine-4-carbonyl]-5,6-dihydrocyclopenta[c]pyrazol-1(4H)-yl}-1-[4-(4-fluoro-3-methylphenoxy)piperidin-1-yl]ethan-1-one] stands 34.6 nM. The figure for `C[C@@H]1CN(C(=O)c2nn(CC(=O)N3CCC(Oc4ccccc4Cl)CC3)c3c2CCC3)C[C@H](C)O1` [Example 92, 1-[4-(2-chlorophenoxy)piperidin-1-yl]-2-{3-[(2R,6S)-2,6-dimethylmorpholine-4-carbonyl]-5,6-dihydrocyclopenta[c]pyrazol-1(4H)-yl}ethan-1-one] is 1.52 nM; for `Cc1cc(F)ccc1OC1CCN(C(=O)Cn2nc(C(=O)N3CCC(OCCO)CC3)c3c2CCCC3)CC1` [Example 76, 1-[4-(4-fluoro-2-methyl-phenoxy)-1-piperidyl]-2-[3-[4-(2-hydroxyethoxy)piperidine-1-carbonyl]-4,5,6,7-tetrahydroindazol-1-yl]ethanone] it is 3.69 nM. Regarding `Cc1ccccc1OC1CCN(C(=O)Cn2nc(C(=O)N3CCN(C(=O)CO)CC3)c3c2C[C@H]2C[C@@H]32)CC1` [Example 2, 2-Hydroxy-1-(4-((3bR,4aR)-1-(2-oxo-2-(4-(o-tolyloxy)piperidin-1-yl)ethyl)-3b,4,4a,5-tetrahydro-1H-cyclopropa[3,4]cyclopenta[1,2-c]pyrazole-3-carbonyl)piperazin-1-yl)ethanone], the half-maximal effective concentration (EC50) stood at 2.33 nM.

As to `C[C@@H]1CN(C(=O)c2nn(CC(=O)N3CCC(Oc4cccc(C(F)(F)F)c4Cl)CC3)c3c2CCC3)C[C@H](C)O1` [Example 159, 1-{4-[2-chloro-3-(trifluoromethyl)phenoxy]piperidin-1-yl}-2-{3-[(2R,6S)-2,6-dimethylmorpholine-4-carbonyl]-5,6-dihydrocyclopenta[c]pyrazol-1(4H)-yl}ethan-1-one], the EC50 was 138 nM. Under `C[C@@H]1CN(C(=O)c2nn(CC(=O)N3CCC(Oc4cccc(C(F)(F)F)c4)CC3)c3c2CCC3)C[C@H](C)O1` [Example 110, 2-{3-[(2R,6S)-2,6-dimethylmorpholine-4-carbonyl]-5,6-dihydrocyclopenta[c]pyrazol-1(4H)-yl}-1-{4-[3-(trifluoromethyl)phenoxy]piperidin-1-yl}ethan-1-one] stands 129 nM.
